# T1: Human HHLA2-mIgG2a fusion protein (human; mouse, UniProt Q9UM44 23-344, limits assumed)
# T1 construct: also called HHLA2-Ig; HHLA2-mouse IgG2a; not shown: mutated at IgG2a L235E, E318A, K320A, K322A
# T1 sequence: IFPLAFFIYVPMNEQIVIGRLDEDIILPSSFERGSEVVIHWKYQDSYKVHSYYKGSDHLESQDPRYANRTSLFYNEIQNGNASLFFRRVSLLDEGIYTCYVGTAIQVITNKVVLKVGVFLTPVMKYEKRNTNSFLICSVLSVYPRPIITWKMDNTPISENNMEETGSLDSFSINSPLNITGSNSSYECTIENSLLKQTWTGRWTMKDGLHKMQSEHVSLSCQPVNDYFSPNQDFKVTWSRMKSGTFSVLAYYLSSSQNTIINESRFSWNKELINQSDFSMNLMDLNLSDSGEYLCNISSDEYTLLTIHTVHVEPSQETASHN
# Biological target: T1, Human HHLA2-mIgG2a fusion protein
# Test: cell microarray on transfected HEK293 cells, HHLA2-mIgG2a probe, AF647 anti-mouse IgG detection
# Method: A library of ˜5500 full length cDNA clones covering more than 3,500 different plasma membrane proteins was arrayed in duplicate across 13 microarray slides (“slide sets”). Human HEK293 cells were grown above the cDNA clones and reverse-transfected. An expression vector (pIRES-hEGFR-IRES-ZsGreen1) was spotted in quadruplicate on every slide and was used to ensure that a minimal threshold of transfection efficiency had been achieved or exceeded on every slide.
# Two replicate slides were screened for each of the 13 slide sets. Fluorescent images were analyzed and quantitated (for transfection efficiency) using ImageQuant software (GE). A protein ‘hit’ was defined as duplicate spots showing a raised signal compared to background levels. This was achieved by visual inspection using the images gridded on the ImageQuant software.
binder,measurement,value
"PD-1 (receptor, UniProt Q15116 25-288, looked up, whole, on cells) LDSPDRPWNPPTFSPALLVVTEGDNATFTCSFSNTSESFVLNWYRMSPSNQTDKLAAFPEDRSQPGQDCRFRVTQLPNGRDFHMSVVRARRNDSGTYLCGAISLAPKAQIKESLRAELRVTERRAEVPTAHPSPSPRPAGQFQTLVVGVVGGLLGSLVLLVWVLAVICSRAARGTIGARRTGQPLKEDPSAVPVFSVDYGELDFQWREKTPEPPVPCVPEQTEYATIVFPSGMGTSSPARRGSADGPRSAQPLRPEDGHCSWPL",binding result,no binding (tested: 20 ug/ml)

# — patent US20250388702A1 (Dana-Farber, published 2025)
